Test system: intraarticular opioid receptors
Test: Intraarticular injection after arthroscopic surgery of the knee
Type: in vivo, human
Conditions: also reported in Stein et al. 1991, Khoury et al. 1992

## CN1CC[C@]23c4c5ccc(O)c4O[C@H]2[C@@H](O)C=C[C@H]3[C@H]1C5.O=S(=O)(O)O [Morphine, morphine sulfate]
  Pain relief, injection into the joint versus same dose intravenously: significantly more pain relief

— patent publication US6787149B1 (El Khoury and Stein Ltd., priority 2000, dated 2004)
